The record followed here is patent US11780821B2, “Inhibitors of fibroblast activation protein” (Praxis Biotech LLC, priority 2017, dated 2023).

Amino acid sequences for entries named in this document (tags omitted). Residues count along the entry.
UniProt Q12884, whole entry: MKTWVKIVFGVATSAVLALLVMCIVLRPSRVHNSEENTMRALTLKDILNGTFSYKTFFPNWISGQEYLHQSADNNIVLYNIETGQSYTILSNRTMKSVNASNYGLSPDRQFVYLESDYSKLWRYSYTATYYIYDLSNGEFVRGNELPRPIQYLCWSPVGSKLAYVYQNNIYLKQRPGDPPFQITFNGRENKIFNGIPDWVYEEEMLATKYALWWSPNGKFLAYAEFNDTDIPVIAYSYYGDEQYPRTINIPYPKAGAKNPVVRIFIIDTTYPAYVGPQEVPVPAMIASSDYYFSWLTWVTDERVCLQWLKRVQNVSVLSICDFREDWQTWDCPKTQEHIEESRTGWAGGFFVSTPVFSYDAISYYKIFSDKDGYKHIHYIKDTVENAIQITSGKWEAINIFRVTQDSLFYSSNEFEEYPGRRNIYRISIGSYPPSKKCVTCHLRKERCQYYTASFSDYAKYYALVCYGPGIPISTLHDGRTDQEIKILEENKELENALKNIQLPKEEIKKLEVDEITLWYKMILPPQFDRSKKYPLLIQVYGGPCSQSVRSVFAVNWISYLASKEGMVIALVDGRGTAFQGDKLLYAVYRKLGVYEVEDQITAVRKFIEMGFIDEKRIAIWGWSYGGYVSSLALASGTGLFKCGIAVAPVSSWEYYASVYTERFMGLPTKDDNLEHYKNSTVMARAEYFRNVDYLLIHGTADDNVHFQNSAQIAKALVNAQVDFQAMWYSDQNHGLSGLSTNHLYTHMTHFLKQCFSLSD
UniProt Q12884, 24-760 limits assumed: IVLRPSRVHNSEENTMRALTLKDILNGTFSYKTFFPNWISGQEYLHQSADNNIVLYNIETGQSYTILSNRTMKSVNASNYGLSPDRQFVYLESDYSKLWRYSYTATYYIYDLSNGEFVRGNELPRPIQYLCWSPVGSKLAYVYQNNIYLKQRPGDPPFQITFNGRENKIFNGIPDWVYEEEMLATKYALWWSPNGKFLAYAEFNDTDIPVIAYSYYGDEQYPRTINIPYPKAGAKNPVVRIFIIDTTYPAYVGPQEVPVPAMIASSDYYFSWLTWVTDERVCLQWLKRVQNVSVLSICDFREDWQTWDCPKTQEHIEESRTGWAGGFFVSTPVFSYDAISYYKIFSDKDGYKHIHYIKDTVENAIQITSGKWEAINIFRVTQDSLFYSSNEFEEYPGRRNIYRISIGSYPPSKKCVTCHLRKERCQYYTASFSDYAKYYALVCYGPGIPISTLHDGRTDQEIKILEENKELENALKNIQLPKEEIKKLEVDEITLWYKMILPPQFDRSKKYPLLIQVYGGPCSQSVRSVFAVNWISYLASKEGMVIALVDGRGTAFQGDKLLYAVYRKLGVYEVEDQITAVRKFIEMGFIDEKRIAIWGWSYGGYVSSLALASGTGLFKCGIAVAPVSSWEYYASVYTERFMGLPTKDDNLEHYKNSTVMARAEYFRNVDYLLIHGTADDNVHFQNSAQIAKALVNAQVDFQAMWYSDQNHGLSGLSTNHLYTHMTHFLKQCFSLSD
UniProt Q86TI2, whole entry: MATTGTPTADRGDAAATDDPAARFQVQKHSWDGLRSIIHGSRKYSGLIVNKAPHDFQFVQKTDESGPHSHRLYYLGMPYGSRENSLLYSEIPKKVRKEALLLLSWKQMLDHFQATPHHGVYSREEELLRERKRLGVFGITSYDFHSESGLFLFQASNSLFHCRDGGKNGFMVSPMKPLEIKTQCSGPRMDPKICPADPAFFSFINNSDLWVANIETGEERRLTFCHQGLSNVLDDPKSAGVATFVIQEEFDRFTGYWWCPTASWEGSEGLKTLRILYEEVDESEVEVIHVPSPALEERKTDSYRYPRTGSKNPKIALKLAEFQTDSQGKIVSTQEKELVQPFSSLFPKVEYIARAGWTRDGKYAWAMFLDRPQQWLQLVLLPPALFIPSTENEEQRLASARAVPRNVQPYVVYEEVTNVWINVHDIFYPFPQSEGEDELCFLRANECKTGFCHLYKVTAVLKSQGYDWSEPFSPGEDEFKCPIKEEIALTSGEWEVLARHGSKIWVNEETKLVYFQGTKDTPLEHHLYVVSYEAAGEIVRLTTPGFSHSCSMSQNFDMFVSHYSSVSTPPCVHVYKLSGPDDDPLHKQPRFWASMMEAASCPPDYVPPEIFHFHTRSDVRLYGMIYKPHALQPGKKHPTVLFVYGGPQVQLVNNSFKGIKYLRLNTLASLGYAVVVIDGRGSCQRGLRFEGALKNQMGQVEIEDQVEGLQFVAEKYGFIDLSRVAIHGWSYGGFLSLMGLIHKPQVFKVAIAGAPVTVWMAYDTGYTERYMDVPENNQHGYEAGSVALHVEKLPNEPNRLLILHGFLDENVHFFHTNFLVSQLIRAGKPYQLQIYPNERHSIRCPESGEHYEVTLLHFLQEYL

Structures are written as SMILES. Like-named read-outs stand apart in the source and are kept apart here.

In assay [1] the target is recombinant human FAPα (rhFAPα) (Homo sapiens, UniProt Q12884). Nature of the assay: FAPα enzymatic exopeptidase (dipeptidase) activity assay. The assay is classed as biochemical. As to conditions: for rhFAPα (% exo inh @ 1 μM): 1 μM test compound, Z-Gly-Pro-AMC substrate; for IC50: read-out: rhFAPα (exo IC50), exopeptidase.
The target in assay [2] is recombinant human DPP9 (rhDPP9) (Homo sapiens, UniProt Q86TI2). Briefly: DPP9 enzymatic activity assay. The assay is classed as biochemical. As to conditions: read-out: rhDPP9 (IC50); H-Gly-Pro-AMC substrate.
Assay [3] has as its target circulating FAPα from human plasma (Homo sapiens, UniProt Q12884). Briefly: Ex vivo inhibition of circulating FAPα activity from human plasma. As to conditions: read-out: FAPα activity in human plasma (PRXS-AMC) IC50, PRXS-AMC substrate.

In the case of `CC(c1ccccc1)c1cnccc1C(=O)NCC(=O)N1CC(F)(F)C[C@H]1C#N` (single isomer, unassigned) [Second eluting isomer of example 74], the “rhFAPα (% exo inh @ 1 μM)” value in assay [1] is “+++ (+++ refers to > 50% inhibition at 1 μM test compound)”. In addition, the half-maximal inhibitory concentration (IC50) fell in the range of 1 to 10 µM in assay [1] (Table 2, Z-Gly-Pro-AMC); 1 to 10 µM in assay [1] (Table 3); 1 to 10 µM in assay [2].
As for `CC(c1ccccc1)c1cnccc1C(=O)NCC(=O)N1CC(F)(F)C[C@H]1C#N` (single isomer, unassigned) [First eluting isomer of example 74], the “rhFAPα (% exo inh @ 1 μM)” value in assay [1] is listed as “+++ (+++ refers to > 50% inhibition at 1 μM test compound)”. Also, the IC50 in assay [1] (Table 2, Z-Gly-Pro-AMC) was under 1 µM; in assay [1] (Table 3), under 1 µM; in assay [2], 1 to 10 µM; in assay [3], under 1 µM.
